Results from patent US9440097B2, “Organic compounds” (Givaudan SA, priority 2005, dated 2016).

System: PGE2 formation in normal human epidermal keratinocytes (NHEK)
Assay: Inhibition of PGE2 formation in irritated keratinocyte cultures (PGE2 immunoassay)
Format: cell-based
Conditions: 24 h
Procedure: A confluent culture was trypsinated and adjusted to a density of 5×10^4 cells/ml. The cells were then seeded in the same medium but with only 1% fetal calf serum in 24 well plates and cultivated for a period of 48 h. A model irritating agent was then applied to the cells by adding calcimycin to a final level of 2.5 μM. The individual compounds, as listed below, dissolved in DMSO were added simultaneously. The final concentration of the compounds was 50 μM or 10 μM, the final DMSO concentration was adjusted to 1% (v/v). Parallel treatments received no calcimycin (non-irritated control) or calcimycin without compounds according to the present invention (irritated control). The DMSO concentration was adjusted to 1% in all these control treatments. […] The prostaglandin levels in treated cell cultures were compared to the irritated and non-irritated control cultures in order to determine the relative inhibition of PGE2 formation.

SMILES: COc1ccc2ccccc2c1 [YARA YARA ™, 2-methoxynaphthalene]
- inhibition at 50 µM (Homo sapiens, NHEK, read-out: relative inhibition in % of PGE2 formation in keratinocyte cultures at 50 μM): 78%
- relative inhibition in % of PGE2 formation in keratinocyte cultures at μM (column head prints only 'μM' (method: 50 μM or 10 μM), calcimycin 2.5 μM, 1% DMSO): 46%
